The record followed here is ChEMBL document CHEMBL4257579, “Analogs of penfluridol as chemotherapeutic agents with reduced central nervous system activity” (Bioorg Med Chem Lett, 2018).

Chains of the proteins cited; added tags and fusions are not shown. Lines headed by an entry give the natural chain unless they say otherwise; changes in a name come on top.
UniProt P47898, whole entry: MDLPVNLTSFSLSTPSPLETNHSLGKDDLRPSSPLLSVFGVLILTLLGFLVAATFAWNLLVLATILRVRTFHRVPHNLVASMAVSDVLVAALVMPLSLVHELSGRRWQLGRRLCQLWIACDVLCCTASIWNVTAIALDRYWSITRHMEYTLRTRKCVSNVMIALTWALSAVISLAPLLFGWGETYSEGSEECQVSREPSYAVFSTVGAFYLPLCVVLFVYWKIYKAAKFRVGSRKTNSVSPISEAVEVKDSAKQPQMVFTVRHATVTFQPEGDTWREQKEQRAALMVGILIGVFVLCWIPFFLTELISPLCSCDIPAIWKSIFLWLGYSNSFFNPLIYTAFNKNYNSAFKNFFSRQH
UniProt P35367, whole entry: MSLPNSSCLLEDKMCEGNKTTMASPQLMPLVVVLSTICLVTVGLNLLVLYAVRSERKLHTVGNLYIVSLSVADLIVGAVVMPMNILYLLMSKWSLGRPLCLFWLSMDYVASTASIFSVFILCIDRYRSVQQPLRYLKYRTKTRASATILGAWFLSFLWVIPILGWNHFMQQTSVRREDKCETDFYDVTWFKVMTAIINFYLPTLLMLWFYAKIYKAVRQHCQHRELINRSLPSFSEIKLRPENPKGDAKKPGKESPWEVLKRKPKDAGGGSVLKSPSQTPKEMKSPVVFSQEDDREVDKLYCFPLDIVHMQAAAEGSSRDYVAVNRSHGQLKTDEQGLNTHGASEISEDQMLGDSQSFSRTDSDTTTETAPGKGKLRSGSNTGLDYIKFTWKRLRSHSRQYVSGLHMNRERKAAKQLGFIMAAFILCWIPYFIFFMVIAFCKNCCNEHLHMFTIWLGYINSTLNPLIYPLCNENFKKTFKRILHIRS
UniProt P25021, whole entry: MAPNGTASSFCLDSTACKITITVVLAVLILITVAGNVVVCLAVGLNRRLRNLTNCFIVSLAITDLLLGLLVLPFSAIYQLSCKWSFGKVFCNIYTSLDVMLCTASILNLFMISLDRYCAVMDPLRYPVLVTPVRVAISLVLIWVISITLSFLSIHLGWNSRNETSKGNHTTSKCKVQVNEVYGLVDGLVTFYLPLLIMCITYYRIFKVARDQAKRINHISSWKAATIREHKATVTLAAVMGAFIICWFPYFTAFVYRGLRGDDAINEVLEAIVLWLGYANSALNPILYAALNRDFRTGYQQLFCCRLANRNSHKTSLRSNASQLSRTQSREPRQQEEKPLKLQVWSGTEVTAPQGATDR
UniProt P28221: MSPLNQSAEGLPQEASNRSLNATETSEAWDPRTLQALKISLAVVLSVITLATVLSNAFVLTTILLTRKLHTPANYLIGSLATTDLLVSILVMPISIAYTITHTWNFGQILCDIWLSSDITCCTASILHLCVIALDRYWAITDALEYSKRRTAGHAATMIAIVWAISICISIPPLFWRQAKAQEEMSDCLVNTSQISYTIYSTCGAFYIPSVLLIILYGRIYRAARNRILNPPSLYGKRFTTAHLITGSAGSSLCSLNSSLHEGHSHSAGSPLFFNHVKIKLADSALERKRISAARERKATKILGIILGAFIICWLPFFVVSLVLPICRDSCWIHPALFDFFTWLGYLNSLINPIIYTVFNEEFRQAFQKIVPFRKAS
UniProt P41595, whole entry: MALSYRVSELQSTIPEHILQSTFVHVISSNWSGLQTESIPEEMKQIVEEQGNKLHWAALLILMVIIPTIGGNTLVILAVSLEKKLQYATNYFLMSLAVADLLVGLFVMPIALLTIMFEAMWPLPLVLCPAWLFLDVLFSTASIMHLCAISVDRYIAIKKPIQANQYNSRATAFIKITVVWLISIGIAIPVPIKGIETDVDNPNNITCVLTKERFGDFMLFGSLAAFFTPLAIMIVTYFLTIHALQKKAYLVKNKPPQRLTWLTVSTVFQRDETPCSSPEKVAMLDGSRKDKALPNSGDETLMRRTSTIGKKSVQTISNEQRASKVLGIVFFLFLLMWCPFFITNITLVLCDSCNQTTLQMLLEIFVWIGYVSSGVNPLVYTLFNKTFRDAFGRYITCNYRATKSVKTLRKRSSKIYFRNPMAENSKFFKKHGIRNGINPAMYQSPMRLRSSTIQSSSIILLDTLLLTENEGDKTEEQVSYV
UniProt P41143, whole entry: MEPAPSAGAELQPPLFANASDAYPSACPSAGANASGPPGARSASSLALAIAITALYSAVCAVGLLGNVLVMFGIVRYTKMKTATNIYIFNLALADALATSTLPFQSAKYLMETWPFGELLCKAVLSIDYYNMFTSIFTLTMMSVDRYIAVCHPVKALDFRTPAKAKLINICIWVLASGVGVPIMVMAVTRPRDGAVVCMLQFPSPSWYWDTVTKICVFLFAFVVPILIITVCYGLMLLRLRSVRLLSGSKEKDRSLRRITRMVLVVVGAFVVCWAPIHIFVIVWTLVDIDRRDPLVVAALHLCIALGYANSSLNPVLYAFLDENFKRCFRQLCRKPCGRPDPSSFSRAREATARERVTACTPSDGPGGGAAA

Molecules are shown by their SMILES.

Holding throughout (type): cell-based
What all share (set-up): concentration or dose not given beside the values
Holding throughout (settings): concentration not given here

Test [1] addresses 5-hydroxytryptamine receptor 5A (Homo sapiens, UniProt P47898). The test is described as follows: Displacement of [3H]LSD from human 5-HT5A receptor expressed in Flp-In CHO cells by radioligand binding assay relative to control.
Test [2] concerns the target Histamine H1 receptor (Homo sapiens, UniProt P35367). The test is described as follows: Displacement of [3H]Pyrilamine from human H1 receptor expressed in HEK cells by radioligand binding assay relative to control. In general terms: In a radioligand displacement assay an active substance lowers the binding of a labelled ligand.
Test [3] addresses Histamine H2 receptor (Homo sapiens, UniProt P25021). The test is described as follows: Displacement of [3H]Cimetidine from human H2 receptor expressed in HEK cells by radioligand binding assay relative to control.
Test [4] addresses 5-hydroxytryptamine receptor 1D (Homo sapiens, UniProt P28221). Put plainly: Displacement of [3H]5-CT from human 5-HT1D receptor expressed in HEK293T cells by radioligand binding assay relative to control.
For test [5], the target named is 5-hydroxytryptamine receptor 2B (Homo sapiens, UniProt P41595). Put plainly: Displacement of [3H]LSD from human 5-HT2B receptor expressed in HEK cells by radioligand binding assay relative to control.
In test [6] the target is Delta-type opioid receptor (Homo sapiens, UniProt P41143). The test is described as follows: Displacement of [3H]DADLE from human DOR expressed in HEK cells by radioligand binding assay relative to control.

Regarding `OC1(c2ccc(Cl)c(C(F)(F)F)c2)CCN(CCCC(c2ccccc2)c2ccccc2)CC1`, the inhibition (in general, the relative decrease from the control value, in per cent) in test [1] was determined as 31%.

With `OC1(c2ccc(Cl)c(C(F)(F)F)c2)CCN(CCCCN(c2ccc(F)cc2)c2ccc(F)cc2)CC1`, the inhibition in test [2] came out at 37.5%; in test [3], 16.6%.

For the molecule `COc1ccc(N(CCCCN2CCC(O)(c3ccc(Cl)c(C(F)(F)F)c3)CC2)c2ccc(OC)cc2)cc1`, the inhibition in test [3] was 15.3%.

On to `OC1(c2ccc(Cl)c(C(F)(F)F)c2)CCN(CCCC=C(c2ccc(F)cc2)c2ccc(F)cc2)CC1`, for which the inhibition in test [4] is 50%.

For the molecule `OC1(c2ccc(Cl)c(C(F)(F)F)c2)CCN(CCCCCc2ccc(F)cc2)CC1`, the inhibition in test [5] turned out to be 25%; in test [6] it was 49.2%.
